The results in this text go back to article PMC3361267 (Journal of Medicinal Chemistry, 2012).

Chains of the proteins cited; added tags and fusions are not shown. Lines headed by an entry give the natural chain unless they say otherwise; changes in a name come on top.
UniProt Q9NPD5: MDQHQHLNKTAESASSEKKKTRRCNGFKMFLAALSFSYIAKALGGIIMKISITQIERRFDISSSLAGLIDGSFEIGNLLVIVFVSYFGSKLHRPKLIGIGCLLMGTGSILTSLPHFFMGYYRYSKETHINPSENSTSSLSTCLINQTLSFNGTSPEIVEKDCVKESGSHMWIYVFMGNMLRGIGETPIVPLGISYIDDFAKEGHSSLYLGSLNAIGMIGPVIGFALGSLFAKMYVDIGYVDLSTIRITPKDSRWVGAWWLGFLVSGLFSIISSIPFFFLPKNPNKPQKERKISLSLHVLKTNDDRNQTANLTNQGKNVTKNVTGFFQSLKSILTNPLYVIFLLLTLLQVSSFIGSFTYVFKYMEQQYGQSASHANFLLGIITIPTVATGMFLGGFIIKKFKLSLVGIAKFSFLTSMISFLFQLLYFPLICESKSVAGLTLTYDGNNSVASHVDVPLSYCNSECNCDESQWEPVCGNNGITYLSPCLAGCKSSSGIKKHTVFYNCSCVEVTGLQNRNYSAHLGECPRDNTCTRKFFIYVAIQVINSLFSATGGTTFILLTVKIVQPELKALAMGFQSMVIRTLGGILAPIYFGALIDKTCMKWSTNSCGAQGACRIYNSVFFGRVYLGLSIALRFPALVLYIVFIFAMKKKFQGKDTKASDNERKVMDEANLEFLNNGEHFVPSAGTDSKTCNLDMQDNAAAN

Molecules are shown by their SMILES.

In this data set the target is OATP1B3 (Homo sapiens, UniProt Q9NPD5).

For the molecule `OCCN(CCO)c1nc(N2CCCCC2)c2nc(N(CCO)CCO)nc(N3CCCCC3)c2n1` [dipyridamole, Dipyridamole], the “OATP1B3 Inhib %” value was found to be 91.8%.
